miR-21 reporter – raises the signal of a miR-21 reporter | HeLa miR-21 FLuc reporter, luciferase, 48 h | Potency, µM (doses to about 38.3 µM), for the others: at the highest dose reporter change, positive = more light | 340,000 tested, under 10 active | AID 2288; active = well fitted rising curve with a large enough effect; inconclusive = small, poorly fitted or top-dose-only effect; inactive = no such curve, though single readings can be large or run the other way;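 also: % of control where 0% means no effect; miR-21 action dims this reporter so a rising signal means less miR-21 action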
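HeLa miR-21-FLuc reporter line, endogenous miR-21; 2000 cells/well in DMEM/10% FBS; compound titration up to ~40uM final, 48 h, 37 degree Celsius; luciferase detection reagent, 15 min lysis, CCD luminescence.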
DT40 TDP1 no CPT – qHTS for Inhibitors of human tyrosyl-DNA phosphodiesterase 1 (TDP1): qHTS in cells in absence of CPT | DT40 Tdp1-/- hTDP1 cells, no CPT, ATP luminescence, 48 h | Potency, µM (doses to about 46.2 µM), for the others: at the highest dose activity change, negative = growth inhibition, actives largely listed as inhibitors | 420,000 tested, 15% active | AID 686978, 2013; also: potency is read from the fitted curve at half-maximal effect; % is scaled to controls: 0 for no effect and ±100 for the full control effect; nearly all actives have a fitted effect of over 55% in size
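Camptothecin absent (DMSO only). Human TDP1-complemented DT40 knockout cells, 400 cells/well, 37 °C for minimum 48 hr; ATP measured via CellTiter-Glo, 30 min dark incubation, luminescence.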
uPA generation – inhibitors of cell surface uPA generation. cell surface uPA generation assay, qHTS. Potency, µM (top dose mostly 38.3 µM), for inactives: at the top dose activity change, negative = inhibition, most hits filed as inhibitors. 330,000 tested, 0.31% active. AID 540303; active = well fitted inhibition curve with a large enough effect; inconclusive = small, poorly fitted or top-dose-only effect; inactive = no such curve, though single readings can be large or run the other way; tested in mouse RAW 264.7 cells; also: potency is read from the fitted curve at half-maximal effect; % is scaled to controls: 0 for no effect and ±100 for the full control effect; nearly all actives have a fitted effect of over 55% in size
DT40 TDP1 CPT – DT40-hTDP1 cell growth loss with CPT; chicken DT40 Tdp1-/-;hTDP1 cells + 20 nM CPT, ATP luminescence, 48 h; Potency, µM (top dose mostly 46.2 µM), for the others: at the top dose activity change, negative = growth inhibition, usual class: inhibitors; 420,000 tested, 12% active; AID 686979; also: potency is read from the fitted curve at half-maximal effect; % is scaled to controls: 0 for no effect and ±100 for the full control effect; nearly all actives have a fitted effect of over 55% in size
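Chicken DT40 Tdp1-/- cells stably complemented with human TDP1 were seeded at 400 cells/well in medium containing 20 nM camptothecin, exposed to pin-transferred compounds, and grown at 37 °C for at least 48 hr. Viability was read as ATP luminescence.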
TDP1 inh – TDP1 (human) enzyme inhibition. Q9NUW8. recombinant TDP1, AlphaScreen DNA substrate cleavage. Potency, µM (titrated, usually from 130 µM), inactives show at the top dose activity change, negative = inhibition, most hits filed as inhibitors. 350,000 tested, 0.28% active; also: potency is read from the fitted curve at half-maximal effect; % is scaled to controls: 0 for no effect and ±100 for the full control effect; nearly all actives have a fitted effect of over 40% in size
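AlphaScreen read-out: signal falls as enzyme removes the 3' tyrosine-FITC from a 5'-biotinylated DNA oligo (15 nM, 5 min, RT). Enzyme was E. coli-made recombinant Tdp1 at 1 nM, exposed to compound for 15 min beforehand; beads 10 ug/ml, 10 min.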
Starred values were filed as active, the others as inactive; [ ] = dose if it differs, or a comment. Most compounds without a hit are left out; they make up all but 16% or so of the library. Unless noted, calls follow the shape of the dose curve; as a rule, active = well fitted curve in the direction sought with a large enough effect; inconclusive = small, poorly fitted or top-dose-only effect, or another doubt; inactive = no such curve, though single readings can be large; an effect the other way counts as inactive or inconclusive.

Screening O=C(CSC1=Nc2ccccc2C2=NC(CCC(=O)NC3CCCCC3)C(=O)N12)Nc1cccc(C(F)(F)F)c1 (stereo not drawn) returned miR-21 reporter 0%, DT40 TDP1 no CPT 23µM*, DT40 TDP1 CPT inconclusive and TDP1 inh -2%[12.3 µM].
COc1cccc(CNC(=O)C2Cc3ccccc3CN2C(C)=O)c1 (stereo not drawn) was read as miR-21 reporter -2%, DT40 TDP1 no CPT -28% and DT40 TDP1 CPT inconclusive.
For COc1cc(OC)c2nc(-c3cc4c(c(OC)c3)OCCN(C(=O)CC3NC(=O)c5ccccc53)C4)cc(C)c2c1 (stereo not drawn) the results were DT40 TDP1 no CPT 23µM* and DT40 TDP1 CPT inconclusive.
For O=C1CCNCCN1[C@H](CO)c1ccccc1 the results were miR-21 reporter -5%, DT40 TDP1 no CPT -4%, uPA generation -2% and DT40 TDP1 CPT -4%.
For COCCn1c(SCC(=O)c2ccc3c(c2)OCCO3)nnc1-c1ccco1 the results were miR-21 reporter -4%, DT40 TDP1 no CPT -14%, uPA generation 3%, DT40 TDP1 CPT -29% and TDP1 inh 3%.
C[C@@]12C(=O)N(Cc3ccc(-c4ccccc4)cc3)CC(=O)N1[C@H](/C=C/c1ccccc1)[C@@H]1C(=O)N(c3ccccc3)C(=O)[C@@H]12 was read as miR-21 reporter 2%, DT40 TDP1 no CPT 23µM*, uPA generation -16% and DT40 TDP1 CPT inconclusive.
For COC(=O)CN1C(=O)[C@H]2[C@@H](/C=C/c3ccccc3)N3C(=O)CN(Cc4ccc(-c5ccccc5)cc4)C(=O)[C@@]3(C)[C@H]2C1=O the results were DT40 TDP1 no CPT inconclusive, uPA generation 5%, DT40 TDP1 CPT 26µM* and TDP1 inh 2%.
For COC(=O)c1ccsc1NC(=O)CSc1nnnn1-c1ccccc1SC the results were miR-21 reporter -6%, DT40 TDP1 no CPT inconclusive, DT40 TDP1 CPT 11µM* and TDP1 inh -2%.
Cc1sc2nc(COC(=O)c3c(F)cccc3F)[nH]c(=O)c2c1C was read as miR-21 reporter -1%, DT40 TDP1 no CPT inconclusive, uPA generation 0%, DT40 TDP1 CPT -8% and TDP1 inh 2%.
Screening Cc1sc2nc(COC(=O)c3ccc(N4CCCC4)c([N+](=O)[O-])c3)[nH]c(=O)c2c1C returned miR-21 reporter -7%, DT40 TDP1 no CPT inconclusive, uPA generation 3%, DT40 TDP1 CPT -4% and TDP1 inh -5%.

The last 2 entries of the section above lead into the next:
Cc1sc2nc(COC(=O)c3c(F)cccc3F)[nH]c(=O)c2c1C was read as miR-21 reporter -1%, DT40 TDP1 no CPT inconclusive, uPA generation 0%, DT40 TDP1 CPT -8% and TDP1 inh 2%.
Screening Cc1sc2nc(COC(=O)c3ccc(N4CCCC4)c([N+](=O)[O-])c3)[nH]c(=O)c2c1C returned miR-21 reporter -7%, DT40 TDP1 no CPT inconclusive, uPA generation 3%, DT40 TDP1 CPT -4% and TDP1 inh -5%.
Screening Cc1sc2nc(COC(=O)c3ccc(N4CCCC(C)C4)c([N+](=O)[O-])c3)[nH]c(=O)c2c1C (stereo not drawn) returned miR-21 reporter -8%, DT40 TDP1 no CPT 16µM*, uPA generation -1%, DT40 TDP1 CPT inconclusive and TDP1 inh 4%.
`Cc1sc2nc(COC(=O)c3ccc(O)cc3)[nH]c(=O)c2c1C` gave miR-21 reporter -19%, DT40 TDP1 no CPT 18µM*, uPA generation 3%, DT40 TDP1 CPT inconclusive and TDP1 inh 5%.
Screening Cc1sc2nc(COC(=O)c3ccc(Cl)c(N)c3)[nH]c(=O)c2c1C returned miR-21 reporter -6%, DT40 TDP1 no CPT 7.3µM*, uPA generation 12%, DT40 TDP1 CPT 16µM* and TDP1 inh 4%.
`CCN(c1ccccc1)S(=O)(=O)c1cccc(C(=O)OCc2nc3sc(C)c(C)c3c(=O)[nH]2)c1` gave miR-21 reporter -9%, DT40 TDP1 no CPT 12%, uPA generation -10%, DT40 TDP1 CPT -14% and TDP1 inh -5%.
COCCN1CC(C(=O)NCc2ccccc2-n2ccnc2C)CCC1=O (stereo not drawn) was read as miR-21 reporter -3%, DT40 TDP1 no CPT -6%, uPA generation -3%, DT40 TDP1 CPT -2% and TDP1 inh 4%.
`Cc1cc(C(=O)NNC(=S)Nc2cccc(C(F)(F)F)c2)nn1C` gave miR-21 reporter -7%, DT40 TDP1 no CPT inconclusive, uPA generation -2%, DT40 TDP1 CPT inconclusive and TDP1 inh 1%.
Screening CCN(C[C@H]1N[C@@](CC)(C(=O)OC)[C@H]2C(=O)N(Cc3ccccc3)C(=O)[C@@H]12)C(=O)Nc1ccc(C)cc1 returned DT40 TDP1 no CPT inconclusive, uPA generation 8%, DT40 TDP1 CPT inconclusive and TDP1 inh 1%.
Screening CCN(C[C@H]1N[C@@](Cc2ccccc2)(C(=O)OC)[C@H]2C(=O)N(Cc3ccccc3)C(=O)[C@@H]12)C(=O)Nc1ccc(C)cc1 returned DT40 TDP1 no CPT 16µM*, uPA generation inconclusive, DT40 TDP1 CPT inconclusive and TDP1 inh 1%.
CCN(C[C@H]1N[C@@](Cc2ccccc2)(C(=O)OC)[C@H]2C(=O)N(Cc3ccccc3)C(=O)[C@@H]12)C(=O)Nc1ccc(C(F)(F)F)cc1 was read as DT40 TDP1 no CPT 3.7µM*, uPA generation inconclusive, DT40 TDP1 CPT 2.6µM* and TDP1 inh 0%.
For COc1ccc(CN2C(=O)CSCC2(C)C(=O)NC(C)C)cc1 (stereo not drawn) the results were DT40 TDP1 no CPT -7% and DT40 TDP1 CPT 4%.

Among those listed so far, two contain a nitro group on carbon:
Screening Cc1sc2nc(COC(=O)c3ccc(N4CCCC4)c([N+](=O)[O-])c3)[nH]c(=O)c2c1C returned miR-21 reporter -7%, DT40 TDP1 no CPT inconclusive, uPA generation 3%, DT40 TDP1 CPT -4% and TDP1 inh -5%.
Screening Cc1sc2nc(COC(=O)c3ccc(N4CCCC(C)C4)c([N+](=O)[O-])c3)[nH]c(=O)c2c1C (stereo not drawn) returned miR-21 reporter -8%, DT40 TDP1 no CPT 16µM*, uPA generation -1%, DT40 TDP1 CPT inconclusive and TDP1 inh 4%.

Additional structures follow.
Screening O=C(NC12CC3CC(CC(C3)C1)C2)C1=COCCO1 returned miR-21 reporter -12%, DT40 TDP1 no CPT -9%, uPA generation 0%, DT40 TDP1 CPT -3% and TDP1 inh 7%.
Screening CCC1CN(C(=O)NCc2ccc(F)cc2)c2ccccc2O1 (stereo not drawn) returned miR-21 reporter 1%, DT40 TDP1 no CPT inconclusive, uPA generation 5%, DT40 TDP1 CPT inconclusive and TDP1 inh 1%.
Screening CCOC(=O)Cc1ccc(NC(=O)N2CC(CC)Oc3ccccc32)cc1 (stereo not drawn) returned miR-21 reporter -3%, DT40 TDP1 no CPT inconclusive, DT40 TDP1 CPT 16µM* and TDP1 inh 3%.
For CCOc1ccccc1NC(=O)N1CC(C)Oc2ccc(Cl)cc21 (stereo not drawn) the results were miR-21 reporter -7%, DT40 TDP1 no CPT inconclusive, DT40 TDP1 CPT inconclusive and TDP1 inh -3%.
For CCOC(=O)Cc1ccc(NC(=O)N2CC(C)Oc3ccc(Cl)cc32)cc1 (stereo not drawn) the results were miR-21 reporter 4%, DT40 TDP1 no CPT inconclusive, DT40 TDP1 CPT 16µM* and TDP1 inh -1%.
`CC(/C=C1\SC(=S)N(NS(=O)(=O)c2ccc(C)cc2)C1=O)=C\c1ccccc1` gave miR-21 reporter 5%, DT40 TDP1 no CPT 5%, uPA generation 1% and DT40 TDP1 CPT 8%.

Compound activity as filed in PubChem.
